Test system: Chinese Hamster Ovarian (CHO) cells
Assay: Cell viability after incubation with CHO cells
Conditions: four-hour incubation with CHO cells at 5 μM, 10 μM and 50 μM

Substance: acetamide-glutathione [7c]
- Toxicity towards CHO cells (% cell viability): no appreciable toxicity up to 50 μM

From paper PMC8437308 (Journal of the American Chemical Society, 2021)
